The values below are quoted from earlier work in patent US20060234299A1, “Protein scaffolds and uses thereof” (Avidia Research Institute, priority 2004, published 2006).

The conditions of this data set: commercial drugs.
Turning to Herceptin: Her2 Antibody, the “Human T½” value is 144 h. Pegasys: rIFN-a-PEG: the “Human T½” value is 78 h. For Rebif: rIFN-b, the “Human T½” value was 69 h.
